For assay [1], the target named is Monomeric collagen (type I) (UniProt P02453). In words: ELISA; SPBA, increasing concentrations of MMP-13 or MMP-13(E204A) on wells coated with fibrillar or monomeric type I collagen (10 μg/ml); KD from fitted curves (Fig. 3). (In general: An ELISA detects its analyte on a solid surface through an enzyme-linked reagent.)
The target in assay [2] is Fibrous bovine type I collagen (bovine) (UniProt P02453). Described as above.

For “MMP-13 (from UniProt P45452 104-471) (enzyme)”, the Kd – broadly, the constant that tells how readily two partners part at equilibrium – worked out at 0.118 µM in assay [1] and 0.033 µM in assay [2].
